Results reported in paper PMC9604311, “Synthesis, Biological Activity and Molecular Docking of Chimeric Peptides Targeting Opioid and NOP Receptors” (International Journal of Molecular Sciences, 2022).

Sequences of proteins named here, by UniProt entry; tags and fusion partners are left off. A change or cut given only in a name is not applied to a line headed by its entry.
UniProt P41145: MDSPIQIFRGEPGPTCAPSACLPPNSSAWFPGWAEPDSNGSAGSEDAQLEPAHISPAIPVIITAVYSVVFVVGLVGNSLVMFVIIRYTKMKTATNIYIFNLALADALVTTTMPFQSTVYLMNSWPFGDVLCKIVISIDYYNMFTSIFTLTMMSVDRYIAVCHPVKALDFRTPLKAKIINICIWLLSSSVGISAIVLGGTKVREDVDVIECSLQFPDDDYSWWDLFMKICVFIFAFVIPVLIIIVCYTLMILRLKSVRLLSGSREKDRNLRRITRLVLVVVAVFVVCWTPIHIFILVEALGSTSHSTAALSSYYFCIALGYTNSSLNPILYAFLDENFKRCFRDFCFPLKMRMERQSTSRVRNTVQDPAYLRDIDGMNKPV
UniProt P41143, whole entry: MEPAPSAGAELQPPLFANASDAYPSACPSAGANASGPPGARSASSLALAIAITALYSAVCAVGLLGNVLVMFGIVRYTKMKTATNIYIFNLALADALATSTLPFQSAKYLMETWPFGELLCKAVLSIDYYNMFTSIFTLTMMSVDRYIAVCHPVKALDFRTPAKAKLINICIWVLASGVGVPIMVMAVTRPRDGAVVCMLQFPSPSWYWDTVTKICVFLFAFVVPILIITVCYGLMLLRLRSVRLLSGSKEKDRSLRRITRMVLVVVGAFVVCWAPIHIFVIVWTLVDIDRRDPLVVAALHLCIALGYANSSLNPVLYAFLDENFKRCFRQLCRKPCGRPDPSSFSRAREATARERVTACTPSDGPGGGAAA

Experiments:
human KOP = molecular target: T1, human KOP (Homo sapiens, UniProt P41145); format: cell-based; details: inactive = inactive up to 1 μM
T1 construct: expressed in transfected cells; host or cells: CHO cells

human DOP = human DOP (Homo sapiens, UniProt P41143); format: cell-based; set-up: expressed in transfected cells; host or cells: CHO cells; details: inactive = inactive up to 1 μM
[1] = agonist potency, calcium mobilization

CC(C)C[C@H](NC(=O)[C@H](CCCCN)NC(=O)[C@H](CCCNC(=N)N)NC(=O)[C@H](C)NC(=O)[C@H](CO)NC(=O)[C@H](CCCCN)NC(=O)[C@H](CCCNC(=N)N)NC(=O)[C@H](C)NC(=O)CNC(=O)[C@@H](NC(=O)[C@H](Cc1ccccc1)NC(=O)CNC(=O)CNC(=O)[C@@H](N)Cc1ccccc1)[C@@H](C)O)C(=O)N[C@@H](C)C(=O)N[C@@H](CC(N)=O)C(=O)N[C@@H](CCC(N)=O)C(=O)O [N/OFQ]
inactive: KOP pEC50 (CL95%) (human KOP; [1]) | KOP α ± SEM (human KOP; efficacy (intrinsic activity) relative to dynorphin A) | DOP pEC50 (CL95%) (human DOP; [1]) | DOP α ± SEM (human DOP; efficacy (intrinsic activity) relative to DPDPE)
